Results: patent US20240316213A1, “ANTIBODY-PROTAMINE FUSIONS AS TARGETING COMPOUNDS OF A PROTAMINE-BASED NANOPARTICLE” (Universität Münster, priority 2021, published 2024)
Where two headings read alike, the source gives them in different places.

Assays:
siRNA = assay: Bandshift (electro-mobility shift) assay, siRNA binding; conditions: preparation containing free SMCC-protamine
Protocol: We analysed the siRNA binding capacity of these different conjugations by our routine bandshift assays (FIG. 40A-F).
The principle of genetic fusion between cell-determining targeting moiety and the electrostatic siRNA binder protamine such as presented in Song et al. was evaluated by applying this strategy to in a variation to target e.g. leukemic blasts (FIG. 48). The well-known anti-CD33 receptor antibody gemtuzumab was expressed with (FIG. 51) and without a direct genetic fusion to protamine as a siRNA carrier.

ASO = assay: Bandshift assay, antisense oligonucleotide binding; conditions: one hour at room temperature or five minutes at 37° C.
Source text: To check if the antibody-protamine nanoparticle can also be used to transport single-stranded oligonucleotides, which are currently used as an alternative tool to knockdown gene expression. These synthetic antisense single-stranded oligonucleotides (“ASO”) are as short as siRNA and it is hypothesized that they bind to the αEGFR-mAB-protamine conjugate analogous to siRNA. We therefore performed a band shift assay using a control ASO and saw that 1 mol αEGFR-mAB-protamine conjugate can bind at least 8 to 32 mol of ASO when incubated for one hour at room temperature or five minutes at 37° C. (FIG. 12).

[1] = Particle size and zeta-potential by dynamic light scattering (DLS); assay type: physicochemical; conditions: after a few hours, 0 to 24 hrs incubation at room temperature
A549 cells = assay: Colony formation assay, A549; assay type: cell-based; conditions: more than 50×SMCC-protamine / highest concentrations
Source text: FIG. 20: Colony-formation assays in soft agar of NSCLC cells treated with different carriers of siRNA with and without free protamine. […] B: SK-LUI cells. […] Shown here are photos of colony assays and mean of three independent experiments+/−SD. Asterisks indicate significant differences (P<0.05, 2-sided T-test).
As a functional assay, we compared the efficiency of the different conjugation products to inhibit the colony formation of A549 cells upon knockdown of the oncogene KRAS. We also compared this to the equal amount of free SMCC-protamine without conjugated cetuximab to elucidate the impact of the unbound SMCC-protamine alone (FIG. 40 S-X). […] SMCC-protamine alone cannot induce inhibition of colony formation via KRAS knockdown at any concentration (FIG. 40 S-X).

RD cells = assay: Internalization of Alexa488-siRNA, FACS; assay type: cell-based
Protocol: FIG. 6: Rhabdomyosarcoma (RMS) cell lines can be targeted by antibody-siRNA complexes. A: Expression of cell surface receptors EGFR and IGF1R was tested in two RMS cell lines, IGFR1R and EGFR is expressed on both cell lines. […] RH-30 in turn were marked by anti IGF1R directed GR11L-protamine (P/P) shuttled Alexa488 control siRNA.
To check targeting efficiency of our antibody constructs in RMS cell lines, we treated the ERMS EGFR^+ cell line RD with anti-EGFR antibody (cetuximab)-siRNA complexes and the ARMS IGF1R^+ cell line RH-30 with anti-IGF1R-siRNA complexes (FIG. 6). Both cell lines express IGF1R and EGFR to variable levels (FIG. 6A), and according to their highest expression, RD cells internalize preferentially anti-EGFR-Alexa488-siRNA (FIGS. 6 B and C, upper panels) whereas RH-30 cells internalize preferentially anti-IGF1R-Alexa488 siRNA complexes (FIG. 6 B, lower panel).

siRNA bound per mol of antibody carrier (siRNA): 8 mol
siRNA bound per mol of antibody carrier (siRNA; listed as anti-EGFR-mAB-protamine/free protamine (P/P) complex): up to 8 mol
ASO bound per mol conjugate (ASO): 8 to 32 mol
Substance: cetuximab-protamine: anti-EGFR antibody cetuximab chemically conjugated via sulfo-SMCC to protamine, preparation containing free SMCC-protamine
size of assembled macrostructures (DLS) [1]: ~500 nm
unspecific toxicity in colony assay (A549 cells): unspecifically toxic
RD cells with internalized Alexa488-siRNA (RD cells): up to 90%
RD cells with internalized Alexa488-siRNA (RD cells; listed as Cetuximab-protamine (EGFR-mAB-P containing free SMCC-protamine (/P/P))): > 90%
